Values quoted from earlier work as cited in patent US20140038836A1, “Novel Pharmacogene Single Nucleotide Polymorphisms and Methods of Detecting Same” (priority 2012, published 2014).

Amino acid sequences for entries named in this document (tags omitted).
UniProt P08913, whole entry: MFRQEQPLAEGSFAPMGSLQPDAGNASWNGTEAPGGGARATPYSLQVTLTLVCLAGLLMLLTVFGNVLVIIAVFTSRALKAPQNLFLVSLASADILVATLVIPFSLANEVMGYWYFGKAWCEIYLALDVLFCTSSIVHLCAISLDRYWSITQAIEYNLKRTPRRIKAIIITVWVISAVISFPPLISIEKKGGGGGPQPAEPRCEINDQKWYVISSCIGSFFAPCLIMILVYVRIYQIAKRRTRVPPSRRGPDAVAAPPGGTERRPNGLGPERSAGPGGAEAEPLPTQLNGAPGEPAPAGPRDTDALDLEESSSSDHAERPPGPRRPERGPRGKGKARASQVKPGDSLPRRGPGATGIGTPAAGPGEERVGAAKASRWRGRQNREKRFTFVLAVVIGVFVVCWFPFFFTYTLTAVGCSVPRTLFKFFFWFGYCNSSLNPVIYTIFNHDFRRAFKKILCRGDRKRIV

Molecular target: ADRA2A (alpha2A subtype alpha-2-adrenergic receptor) (Homo sapiens, UniProt P08913)
Settings: antagonists of the alpha2A receptor

In the case of `COc1cc2nc(N3CCN(C(=O)c4ccco4)CC3)nc(N)c2cc1OC` [prazosin], the “rank order for antagonists” value is listed as “yohimbine>phentolamine=mianserine>chlorpromazine=spiperone=prazosin>propanolol>alprenolol=pindolol”.
